The values that follow come from US12685735B2 (Foghorn Therapeutics Inc., priority 2020, dated 2026).

Sequences of proteins named here, by UniProt entry; tags and fusion partners are left off.
UniProt P51532, whole entry: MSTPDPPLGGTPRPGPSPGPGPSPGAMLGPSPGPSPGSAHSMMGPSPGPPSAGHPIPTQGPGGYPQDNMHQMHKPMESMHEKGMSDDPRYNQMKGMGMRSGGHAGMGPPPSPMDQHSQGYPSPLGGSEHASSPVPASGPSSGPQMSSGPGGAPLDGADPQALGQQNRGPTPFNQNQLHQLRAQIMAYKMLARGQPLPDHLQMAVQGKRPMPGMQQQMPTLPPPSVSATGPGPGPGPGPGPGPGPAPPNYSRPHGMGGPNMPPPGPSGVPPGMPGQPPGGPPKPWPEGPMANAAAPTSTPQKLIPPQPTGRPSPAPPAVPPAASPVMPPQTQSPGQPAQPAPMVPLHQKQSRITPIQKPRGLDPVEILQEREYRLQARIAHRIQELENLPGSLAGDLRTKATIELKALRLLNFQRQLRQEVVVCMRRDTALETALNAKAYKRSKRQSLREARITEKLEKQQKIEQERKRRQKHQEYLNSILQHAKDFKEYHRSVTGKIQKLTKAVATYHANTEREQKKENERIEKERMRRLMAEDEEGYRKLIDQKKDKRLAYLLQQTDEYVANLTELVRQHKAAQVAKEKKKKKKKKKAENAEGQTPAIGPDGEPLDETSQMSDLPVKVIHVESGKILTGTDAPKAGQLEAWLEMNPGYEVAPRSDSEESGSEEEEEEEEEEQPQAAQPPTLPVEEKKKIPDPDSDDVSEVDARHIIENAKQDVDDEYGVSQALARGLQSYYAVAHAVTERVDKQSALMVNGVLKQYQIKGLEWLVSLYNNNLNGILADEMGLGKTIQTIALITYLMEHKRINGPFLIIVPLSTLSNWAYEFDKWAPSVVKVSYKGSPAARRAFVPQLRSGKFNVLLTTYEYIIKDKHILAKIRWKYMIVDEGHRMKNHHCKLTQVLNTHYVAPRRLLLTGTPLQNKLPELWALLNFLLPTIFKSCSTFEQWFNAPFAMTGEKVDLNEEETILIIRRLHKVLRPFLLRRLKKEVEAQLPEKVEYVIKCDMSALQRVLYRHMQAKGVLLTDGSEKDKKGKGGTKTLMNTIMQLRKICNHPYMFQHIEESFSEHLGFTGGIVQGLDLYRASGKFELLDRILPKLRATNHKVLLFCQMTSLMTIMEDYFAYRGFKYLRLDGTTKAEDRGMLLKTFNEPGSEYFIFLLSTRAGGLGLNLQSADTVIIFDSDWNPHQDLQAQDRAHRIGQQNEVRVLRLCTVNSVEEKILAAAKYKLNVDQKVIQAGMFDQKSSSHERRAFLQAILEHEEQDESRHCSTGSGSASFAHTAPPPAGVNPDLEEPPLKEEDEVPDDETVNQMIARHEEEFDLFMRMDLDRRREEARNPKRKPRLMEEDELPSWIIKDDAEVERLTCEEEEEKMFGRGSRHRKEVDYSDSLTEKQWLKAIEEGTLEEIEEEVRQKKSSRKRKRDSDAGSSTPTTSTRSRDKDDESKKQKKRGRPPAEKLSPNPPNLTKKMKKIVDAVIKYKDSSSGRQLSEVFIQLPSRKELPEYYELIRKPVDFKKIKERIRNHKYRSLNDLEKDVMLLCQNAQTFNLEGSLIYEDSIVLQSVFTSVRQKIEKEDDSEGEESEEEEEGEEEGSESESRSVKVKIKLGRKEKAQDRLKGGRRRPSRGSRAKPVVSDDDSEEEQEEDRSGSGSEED

Molecules are shown by their SMILES.

The target of the test is BRG-1 (Homo sapiens, UniProt P51532). Put plainly: ATPase catalytic activity assay of BRG-1 (ADP-Glo). Type of test: biochemical. Particulars: read-out: BRG1 Max % Inhibition. How it is done: The ATPase catalytic activity of BRM or BRG-1 was measured by the in vitro biochemical assay using ADP-Glo™ (Promega, V9102). The ADP-Glo™ kinase assay is performed in two steps once the reaction is complete. The first step is to deplete any unconsumed ATP in the reaction. The second step is to convert the reaction product ADP to ATP, which will be utilized by the luciferase to generate luminesce and be detected by a luminescence reader, such as Envision.
Then following addition of 5 μL of ADP-Glo™ Reagent provided in the kit, the reaction incubates at room temperature for 40 minutes. Then 10 μL of Kinase Detection Reagent provided in the kit is added to convert ADP to ATP, and the reaction incubates at room temperature for 60 minutes. Finally, luminescence measurement is collected with a plate-reading luminometer, such as Envision.
The ADP-Glo™ kinase assay is performed in two steps once the reaction is complete. The first step is to deplete any unconsumed ATP in the reaction. The second step is to convert the reaction product ADP to ATP, which will be utilized by the luciferase to generate luminesce and be detected by a luminescence reader, such as Envision.
In general terms: ADP-Glo turns the ADP formed in a reaction into a luminescent signal.

With `CC(C)S(=O)(=O)c1cccc(C(=O)NCC(=O)Nc2nc(-c3cccc(-c4ccnc(C(F)(F)F)c4)c3)cs2)c1` [Compound 19, 3-(isopropylsulfonyl)-N-(2-oxo-2-((4-(3-(2-(trifluoromethyl)pyridin-4-yl)phenyl)thiazol-2-yl)amino)ethyl)benzamide], the Emax was above 70%.
Under `CC(C)S(=O)(=O)c1cccc(C(=O)NCC(=O)Nc2nc(-c3cccc(-c4ccnc(N)c4)c3)cs2)c1` [Compound 22, N-(2-((4-(3-(2-aminopyridin-4-yl)phenyl)thiazol-2-yl)amino)-2-oxoethyl)-3-(isopropylsulfonyl)benzamide] stands above 80%; under `CC(C)S(=O)(=O)c1cccc(C(=O)NCC(=O)Nc2nc(-c3cccc(-c4cccc(C#N)c4)c3)cs2)c1` [Compound 24, N-(2-((4-(3′-cyano-[1,1′-biphenyl]-3-yl)thiazol-2-yl)amino)-2-oxoethyl)-3-(isopropylsulfonyl)benzamide], above 60%; under `CC(C)S(=O)(=O)c1cccc(C(=O)NCC(=O)Nc2nc(-c3cccc(-c4ccnc(CO)c4)c3)cs2)c1` [Compound 26, N-(2-((4-(3-(2-(hydroxymethyl)pyridin-4-yl)phenyl)thiazol-2-yl)amino)-2-oxoethyl)-3-(isopropylsulfonyl)benzamide], above 90%.
For the compound `CC(C)S(=O)(=O)c1cccc(C(=O)NCC(=O)Nc2nc(-c3cccc(-c4cc(CO)cc(C(F)(F)F)c4)c3)cs2)c1` [Compound 27, N-(2-((4-(3′-(hydroxymethyl)-5′-(trifluoromethyl)-[1,1′-biphenyl]-3-yl)thiazol-2-yl)amino)-2-oxoethyl)-3-(isopropylsulfonyl)benzamide], the Emax was above 80%.
Under `CC(C)S(=O)(=O)c1cccc(C(=O)NCC(=O)Nc2nc(-c3cccc(-c4cccc(Cl)c4)c3)cs2)c1` [Compound 28, N-(2-((4-(3′-chloro-[1,1′-biphenyl]-3-yl)thiazol-2-yl)amino)-2-oxoethyl)-3-(isopropylsulfonyl)benzamide] stands above 50%; under `COc1cc(-c2cccc(-c3csc(NC(=O)CNC(=O)c4cccc(S(=O)(=O)C(C)C)c4)n3)c2)ccn1` [Compound 29, 3-(isopropylsulfonyl)-N-(2-((4-(3-(2-methoxypyridin-4-yl)phenyl)thiazol-2-yl)amino)-2-oxoethyl)benzamide], above 80%; under `CC(C)S(=O)(=O)c1cccc(C(=O)NCC(=O)Nc2nc(-c3cccc(-c4cc(Cl)cc(Cl)c4)c3)cs2)c1` [Compound 30, N-(2-((4-(3′,5′-dichloro-[1,1′-biphenyl]-3-yl)thiazol-2-yl)amino)-2-oxoethyl)-3-(isopropylsulfonyl)benzamide], above 50%.
Under `CC(C)S(=O)(=O)c1cccc(C(=O)NCC(=O)Nc2nc(-c3cccc(-c4ccnc(CN(C)C)c4)c3)cs2)c1` [Compound 45, N-(2-((4-(3-(2-((dimethylamino)methyl)pyridin-4-yl)phenyl)thiazol-2-yl)amino)-2-oxoethyl)-3-(isopropylsulfonyl)benzamide] stands above 80%.
